Data from US20030139427A1, “Bicyclic pyrimidinyl derivatives and methods of use thereof” (OSI Pharmaceuticals Inc., priority 2002, published 2003).

Protein sequences, listed by entry. Tags and fused reporters are not part of them.
UniProt P30542, whole entry: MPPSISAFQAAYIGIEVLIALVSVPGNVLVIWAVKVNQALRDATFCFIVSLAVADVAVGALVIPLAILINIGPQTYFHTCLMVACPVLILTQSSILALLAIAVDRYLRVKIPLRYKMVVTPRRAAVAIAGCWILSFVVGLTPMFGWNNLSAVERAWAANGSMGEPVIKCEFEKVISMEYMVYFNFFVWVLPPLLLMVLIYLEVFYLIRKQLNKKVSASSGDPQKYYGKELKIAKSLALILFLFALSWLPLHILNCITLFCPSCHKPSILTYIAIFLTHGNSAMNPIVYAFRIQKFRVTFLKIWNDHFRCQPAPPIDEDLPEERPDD

Biological target: human A1 adenosine receptor (Homo sapiens, UniProt P30542)
Test: fus1-LacZ β-galactosidase assay in yeast expressing human A1 adenosine receptor (Ste18-Gγ2, GPA41-Gαi3)
Conditions: NECA concentration of 10^−8 M, CPRG substrate

With `CCNC(=O)[C@H]1O[C@@H](n2cnc3c(N)ncnc32)[C@H](O)[C@@H]1O` the “stimulation of β-galactosidase activity” value was “approximately 2 fold”.
